The record followed here is US6737439B2.

Sequences of proteins named here, by UniProt entry; tags and fusion partners are left off.
UniProt P11511, whole entry: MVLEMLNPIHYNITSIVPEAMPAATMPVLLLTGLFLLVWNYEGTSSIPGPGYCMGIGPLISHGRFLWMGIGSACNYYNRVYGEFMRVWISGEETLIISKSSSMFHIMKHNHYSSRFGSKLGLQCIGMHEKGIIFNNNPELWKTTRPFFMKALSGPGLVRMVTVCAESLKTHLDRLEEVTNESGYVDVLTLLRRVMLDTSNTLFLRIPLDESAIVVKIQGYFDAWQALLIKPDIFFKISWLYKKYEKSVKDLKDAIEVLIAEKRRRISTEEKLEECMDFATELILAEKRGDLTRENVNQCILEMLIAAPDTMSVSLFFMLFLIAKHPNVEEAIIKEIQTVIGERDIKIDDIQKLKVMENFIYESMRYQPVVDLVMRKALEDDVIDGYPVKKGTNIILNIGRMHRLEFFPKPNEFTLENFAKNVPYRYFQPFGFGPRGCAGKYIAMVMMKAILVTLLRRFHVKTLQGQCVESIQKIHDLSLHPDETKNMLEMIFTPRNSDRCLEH

In the experiment the target is aromatase (Homo sapiens, UniProt P11511). Description: Assay for inhibition of aromatase activity (human placental microsomes, [1,2-3H]androstenedione). The conditions noted are these: read-out: IC50 (μM), aromatase inhibitory activity. Format: biochemical.

Where “and” joins values, the source holds several entries; their conditions need not be identical. Identical values can stand only once.

With `CC(C)=CCc1cc(-c2oc3cc(O)cc(O)c3c(=O)c2O)ccc1O`, the IC50 is 0.1 µM and 0.13 µM.
